Laboratory results reported in patent US20250281518A1, “METHODS AND AGENTS FOR PREVENTING SKELETAL AGING, OSTEOPOROSIS AND OBESITY” (The Regents of the University of California, priority 2022, published 2025).

Assay: Solubility in water

alpha-ketoglutarate [α-KG]
solubility in water: dissolve well in water
